Biological target: γ-secretase (Homo sapiens, UniProt P49768)
Assay: Isolated membrane γ-secretase assay, time-resolved fluorescence detection of Aβ
Conditions: read-out: Activity (IC50), Inhibition of β-Amyloid Peptide; isolated membranes, about 90 minutes at 37 degrees C
Excerpt: The detection of γ-secretase activity requires assays capable of reliable, accurate and expedient detection of γ-secretase cleavage products, particularly Aβ. An isolated membrane fraction that contains functionally active γ-secretase and β-APP substrates can generate γ-secretase cleavage products including Aβ (Roberts et al., WO 01/75435; Fechteler et al., Patent Application No. DE 99-19941039 19990828; Shearman et al., Biochemistry, 39, p. 8698–8704 (2000); Zhang et al., Biochemistry, 40, p. 5049-5055 (2001)). […] 325–327 (1992), or by a preferred method using time-resolved fluorescence of the homogeneous sample containing membranes and Aβ (Roberts et al., WO 01/75435; Shearman et al., Biochemistry, 39, p. 8698–8704 (2000)). The Aβ present in a homogeneous sample containing membranes can be detected by time-resolved fluorescence with two antibodies that recognize different epitopes of Aβ. […] A lack of fluorescence is indicative of the absence of cleavage products, resulting from inhibition of γ-secretase. […]
A typical membrane-based assay requires 45 μg membrane protein per well in a 96- or 384-well format. […] Incubation of the membranes with the test agent will continue for approximately 90 minutes at which time fluorescence labeled antibodies are added to each well for Aβ quantitation. […]

In the case of C#CCC(O)[C@@H](C)N(c1cc(Cl)ccc1Cl)S(=O)(=O)c1ccc(Cl)cc1 (single isomer, unassigned), the IC50 is reported as less than 50 nM.
